In patent US20230054318A1, “PERSONALIZED TUMOR VACCINE AND USE THEREOF FOR CANCER IMMUNOTHERAPY” (priority 2019, published 2023):

Assay: Human Equivalent Dose (HED) calculation based on body surface area
Source text: Provided herein are methods for calculating HED of the MBTA components based on body surface area.
See details from: Nair A B, Jacob S. A simple practice guide for dose conversion between animals and human. J Basic Clin Pharma 2016; 7:27-31
A formula to calculate HED is shown as follows:
HED(mg/kg)=Animal dose(mg/kg)Animal Km/Human Km

CCOCc1nc2c(N)nc3ccccc3c2n1CC(C)(C)O [R-848, Resiquimod]
HED (Mouse Km=3, Human Km=37): 0.0973 mg/kg
HED/Safety Factor (10) (human): 0.00973 mg/kg
Maximum Recommended Starting Dose (MRSD, assuming 60 kg adult) (human): 0.5838 mg/day
